The results in this text go back to ChEMBL document CHEMBL1140106, “Blocking estrogen signaling after the hormone: pyrimidine-core inhibitors of estrogen receptor-coactivator binding” (J Med Chem, 2008).

By UniProt entry, the sequences of proteins in these tests, tags left out.
UniProt P03372, whole entry: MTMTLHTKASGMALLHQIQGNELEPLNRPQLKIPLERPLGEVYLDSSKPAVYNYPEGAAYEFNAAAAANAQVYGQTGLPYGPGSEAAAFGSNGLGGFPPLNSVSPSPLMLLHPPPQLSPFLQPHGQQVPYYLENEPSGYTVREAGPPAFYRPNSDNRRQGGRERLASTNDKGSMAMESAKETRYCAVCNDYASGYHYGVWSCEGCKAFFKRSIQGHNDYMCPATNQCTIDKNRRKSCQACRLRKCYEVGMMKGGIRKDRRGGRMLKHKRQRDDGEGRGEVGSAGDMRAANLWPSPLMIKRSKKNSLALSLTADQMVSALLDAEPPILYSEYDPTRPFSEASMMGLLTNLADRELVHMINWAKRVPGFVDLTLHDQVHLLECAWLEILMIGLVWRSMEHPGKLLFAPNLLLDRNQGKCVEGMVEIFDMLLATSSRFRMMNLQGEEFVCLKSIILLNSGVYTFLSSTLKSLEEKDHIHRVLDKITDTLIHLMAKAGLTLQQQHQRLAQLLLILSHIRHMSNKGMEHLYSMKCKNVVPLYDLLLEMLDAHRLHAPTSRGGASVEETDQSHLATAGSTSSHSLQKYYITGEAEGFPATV
UniProt Q92731, whole entry: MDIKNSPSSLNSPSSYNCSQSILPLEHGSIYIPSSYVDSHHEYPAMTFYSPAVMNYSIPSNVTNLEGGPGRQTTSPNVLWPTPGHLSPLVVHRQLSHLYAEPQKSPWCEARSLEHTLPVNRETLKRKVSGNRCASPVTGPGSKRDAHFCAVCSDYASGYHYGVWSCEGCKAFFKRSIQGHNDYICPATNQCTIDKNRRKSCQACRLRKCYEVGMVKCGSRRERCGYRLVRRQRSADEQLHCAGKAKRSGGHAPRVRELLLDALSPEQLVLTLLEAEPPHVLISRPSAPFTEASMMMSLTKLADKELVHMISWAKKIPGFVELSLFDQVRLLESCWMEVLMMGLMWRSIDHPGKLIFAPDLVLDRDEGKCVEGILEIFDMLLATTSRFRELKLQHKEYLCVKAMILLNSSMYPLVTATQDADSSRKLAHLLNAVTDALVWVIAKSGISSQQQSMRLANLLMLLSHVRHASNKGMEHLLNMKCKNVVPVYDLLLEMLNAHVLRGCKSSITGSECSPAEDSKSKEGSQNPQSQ

Where only a bound is given, the exact number is not on record here.

One assay addresses Estrogen receptor (Homo sapiens, UniProt P03372). Description: Displacement of [3H]estradiol from full length purified human ERalpha relative to estradiol.
A further assay has as its target Estrogen receptor beta (Homo sapiens, UniProt Q92731). Description: Displacement of [3H]estradiol from full length purified human ERbeta relative to estradiol.

Consider `CC(C)CCc1cc(NCC(C)C)nc(N(C)CC(C)C)n1`, for which the RBA at Estrogen receptor and on Estrogen receptor beta was under 0.001% each time.

Turning to `CC(C)CNc1cc(CCc2cccc3ccccc23)nc(NCC(C)C)n1`, the RBA on Estrogen receptor and at Estrogen receptor beta was under 0.001% throughout.
